In the experiment the target is Delta-type opioid receptor (Homo sapiens, UniProt P41143). Nature of the experiment: In vitro binding affinity towards Opioid receptor delta 1 was determined using […].

By UniProt entry, the sequences of proteins in these tests, tags left out.
UniProt P41143, whole entry: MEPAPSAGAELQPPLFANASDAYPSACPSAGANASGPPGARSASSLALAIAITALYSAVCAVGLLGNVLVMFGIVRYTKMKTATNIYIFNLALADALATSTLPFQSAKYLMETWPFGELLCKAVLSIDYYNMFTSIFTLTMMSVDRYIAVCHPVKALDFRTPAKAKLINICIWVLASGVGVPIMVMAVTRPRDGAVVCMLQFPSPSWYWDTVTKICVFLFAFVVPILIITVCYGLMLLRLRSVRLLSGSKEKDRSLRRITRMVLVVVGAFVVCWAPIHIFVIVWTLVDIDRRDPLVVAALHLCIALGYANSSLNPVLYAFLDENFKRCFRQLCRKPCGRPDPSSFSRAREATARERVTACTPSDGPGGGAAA

This is an account of results in ChEMBL document CHEMBL1131989, “Biological activity of fragments and analogues of the potent dimeric opioid peptide, biphalin” (Bioorg Med Chem Lett, 1999).

For orientation: IC50 means the point on the concentration scale where inhibition reaches its midpoint. A low value points to inhibition by little substance.

Molecule `C[C@@H](NC(=O)[C@@H](N)Cc1ccc(O)cc1)C(=O)NCC(=O)N[C@@H](Cc1ccccc1)C(=O)NNC(=O)[C@H](Cc1ccccc1)NC(=O)CNC(=O)[C@@H](C)NC(=O)[C@@H](N)Cc1ccc(O)cc1` [BIPHALIN] had an IC50 of 2.6 nM.
